Calls of active or inactive are those of the source. The rule behind the calls is not given here.
Experiments:
HeLa [1] = experiment: Induction of multinucleation in human HeLa cells assessed as increase in live nuclei to cell ratio at 20 uM incubated for 48 hrs by Cytokinesis assay; format: functional, cell-based
[2] = biological target: cAMP-dependent protein kinase catalytic subunit alpha (Homo sapiens) (UniProt P17612); experiment: Inhibition of human full length PKAalpha expressed in Escherichia coli using peptide substrate at 1 uM incubated for 15 mins by [33P]-gammaATP based Topcount scintillation counting analysis relative to control
[3] = biological target: T1, Myotonin-protein kinase (Homo sapiens) (UniProt Q09013); experiment: Inhibition of human recombinant DMPK (1 to 549) using KKSRGDYMTMQIG as substrate at 1 uM incubated for 40 mins by radiometric scintillation counting analysis relative to control
T1 sequence (whole entry): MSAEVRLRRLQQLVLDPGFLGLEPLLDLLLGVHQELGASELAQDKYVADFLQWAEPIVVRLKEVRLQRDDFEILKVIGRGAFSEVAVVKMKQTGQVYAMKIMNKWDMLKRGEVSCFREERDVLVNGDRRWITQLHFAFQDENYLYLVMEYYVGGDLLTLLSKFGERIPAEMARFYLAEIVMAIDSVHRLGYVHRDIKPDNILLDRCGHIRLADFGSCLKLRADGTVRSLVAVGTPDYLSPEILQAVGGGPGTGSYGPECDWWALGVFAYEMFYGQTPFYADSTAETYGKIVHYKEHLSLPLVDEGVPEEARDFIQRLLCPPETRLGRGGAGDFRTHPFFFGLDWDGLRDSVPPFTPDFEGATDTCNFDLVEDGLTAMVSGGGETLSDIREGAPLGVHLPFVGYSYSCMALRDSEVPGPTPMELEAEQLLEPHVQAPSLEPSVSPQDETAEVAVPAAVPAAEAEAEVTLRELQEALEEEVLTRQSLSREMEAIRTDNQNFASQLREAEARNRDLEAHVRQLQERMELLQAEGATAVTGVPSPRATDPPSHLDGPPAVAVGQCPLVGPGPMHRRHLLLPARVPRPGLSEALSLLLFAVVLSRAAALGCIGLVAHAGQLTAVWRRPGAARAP

Sequences of proteins named here, by UniProt entry; tags and fusion partners are left off. A change or cut given only in a name is not applied to a line headed by its entry.
UniProt P31749: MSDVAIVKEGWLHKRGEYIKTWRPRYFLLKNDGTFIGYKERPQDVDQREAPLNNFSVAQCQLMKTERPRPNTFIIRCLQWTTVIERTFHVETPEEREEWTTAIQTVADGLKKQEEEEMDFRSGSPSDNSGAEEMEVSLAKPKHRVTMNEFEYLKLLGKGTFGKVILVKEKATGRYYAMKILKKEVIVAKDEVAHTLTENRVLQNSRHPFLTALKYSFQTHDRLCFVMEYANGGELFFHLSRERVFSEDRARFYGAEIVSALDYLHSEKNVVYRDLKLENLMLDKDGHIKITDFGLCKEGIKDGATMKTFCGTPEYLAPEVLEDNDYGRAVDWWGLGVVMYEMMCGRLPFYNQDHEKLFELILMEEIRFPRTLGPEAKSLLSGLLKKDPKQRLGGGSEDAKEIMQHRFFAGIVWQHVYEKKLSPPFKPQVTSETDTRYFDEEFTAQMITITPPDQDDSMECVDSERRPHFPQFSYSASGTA
UniProt Q5VT25: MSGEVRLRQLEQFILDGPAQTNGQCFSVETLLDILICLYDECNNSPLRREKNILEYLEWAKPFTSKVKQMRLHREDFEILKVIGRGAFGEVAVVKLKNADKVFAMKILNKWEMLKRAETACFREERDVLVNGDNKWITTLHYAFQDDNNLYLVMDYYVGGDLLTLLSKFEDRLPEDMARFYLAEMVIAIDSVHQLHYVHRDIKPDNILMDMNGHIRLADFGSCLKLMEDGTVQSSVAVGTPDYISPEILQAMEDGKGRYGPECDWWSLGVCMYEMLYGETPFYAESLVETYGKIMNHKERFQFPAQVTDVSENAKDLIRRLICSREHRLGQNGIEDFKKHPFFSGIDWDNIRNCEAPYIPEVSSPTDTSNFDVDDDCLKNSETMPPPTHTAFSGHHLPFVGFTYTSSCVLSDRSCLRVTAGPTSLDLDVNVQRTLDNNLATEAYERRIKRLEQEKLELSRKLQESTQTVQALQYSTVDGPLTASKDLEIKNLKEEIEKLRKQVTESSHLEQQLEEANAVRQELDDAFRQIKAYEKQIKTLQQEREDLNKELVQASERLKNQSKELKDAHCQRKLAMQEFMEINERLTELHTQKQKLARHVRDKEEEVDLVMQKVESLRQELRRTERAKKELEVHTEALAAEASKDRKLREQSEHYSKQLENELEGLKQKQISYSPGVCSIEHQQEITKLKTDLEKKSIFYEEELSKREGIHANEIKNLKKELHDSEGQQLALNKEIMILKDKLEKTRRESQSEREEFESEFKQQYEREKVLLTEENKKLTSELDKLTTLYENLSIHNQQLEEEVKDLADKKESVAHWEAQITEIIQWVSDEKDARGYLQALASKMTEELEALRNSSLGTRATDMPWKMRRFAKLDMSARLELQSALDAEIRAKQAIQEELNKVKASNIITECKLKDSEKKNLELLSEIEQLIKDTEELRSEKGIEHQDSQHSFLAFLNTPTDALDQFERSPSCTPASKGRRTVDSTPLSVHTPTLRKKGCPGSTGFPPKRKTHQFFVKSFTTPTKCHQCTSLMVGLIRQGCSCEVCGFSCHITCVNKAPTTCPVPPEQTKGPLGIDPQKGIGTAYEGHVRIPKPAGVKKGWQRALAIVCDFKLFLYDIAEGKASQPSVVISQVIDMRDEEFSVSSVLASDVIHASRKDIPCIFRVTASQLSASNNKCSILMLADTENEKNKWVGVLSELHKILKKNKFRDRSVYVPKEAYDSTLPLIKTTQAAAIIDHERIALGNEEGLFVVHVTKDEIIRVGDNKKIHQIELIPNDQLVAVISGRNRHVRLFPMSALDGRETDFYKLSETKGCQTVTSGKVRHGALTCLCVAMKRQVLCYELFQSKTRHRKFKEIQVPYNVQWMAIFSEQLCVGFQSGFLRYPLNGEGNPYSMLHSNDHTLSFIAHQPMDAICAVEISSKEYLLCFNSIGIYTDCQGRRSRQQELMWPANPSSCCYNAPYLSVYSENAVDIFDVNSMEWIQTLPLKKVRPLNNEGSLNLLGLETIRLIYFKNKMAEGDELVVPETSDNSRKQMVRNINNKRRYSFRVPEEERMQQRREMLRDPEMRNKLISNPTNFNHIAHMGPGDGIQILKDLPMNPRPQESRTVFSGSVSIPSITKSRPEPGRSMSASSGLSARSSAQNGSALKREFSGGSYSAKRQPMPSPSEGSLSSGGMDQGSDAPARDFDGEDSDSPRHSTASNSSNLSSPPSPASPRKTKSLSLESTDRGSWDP
UniProt O75116: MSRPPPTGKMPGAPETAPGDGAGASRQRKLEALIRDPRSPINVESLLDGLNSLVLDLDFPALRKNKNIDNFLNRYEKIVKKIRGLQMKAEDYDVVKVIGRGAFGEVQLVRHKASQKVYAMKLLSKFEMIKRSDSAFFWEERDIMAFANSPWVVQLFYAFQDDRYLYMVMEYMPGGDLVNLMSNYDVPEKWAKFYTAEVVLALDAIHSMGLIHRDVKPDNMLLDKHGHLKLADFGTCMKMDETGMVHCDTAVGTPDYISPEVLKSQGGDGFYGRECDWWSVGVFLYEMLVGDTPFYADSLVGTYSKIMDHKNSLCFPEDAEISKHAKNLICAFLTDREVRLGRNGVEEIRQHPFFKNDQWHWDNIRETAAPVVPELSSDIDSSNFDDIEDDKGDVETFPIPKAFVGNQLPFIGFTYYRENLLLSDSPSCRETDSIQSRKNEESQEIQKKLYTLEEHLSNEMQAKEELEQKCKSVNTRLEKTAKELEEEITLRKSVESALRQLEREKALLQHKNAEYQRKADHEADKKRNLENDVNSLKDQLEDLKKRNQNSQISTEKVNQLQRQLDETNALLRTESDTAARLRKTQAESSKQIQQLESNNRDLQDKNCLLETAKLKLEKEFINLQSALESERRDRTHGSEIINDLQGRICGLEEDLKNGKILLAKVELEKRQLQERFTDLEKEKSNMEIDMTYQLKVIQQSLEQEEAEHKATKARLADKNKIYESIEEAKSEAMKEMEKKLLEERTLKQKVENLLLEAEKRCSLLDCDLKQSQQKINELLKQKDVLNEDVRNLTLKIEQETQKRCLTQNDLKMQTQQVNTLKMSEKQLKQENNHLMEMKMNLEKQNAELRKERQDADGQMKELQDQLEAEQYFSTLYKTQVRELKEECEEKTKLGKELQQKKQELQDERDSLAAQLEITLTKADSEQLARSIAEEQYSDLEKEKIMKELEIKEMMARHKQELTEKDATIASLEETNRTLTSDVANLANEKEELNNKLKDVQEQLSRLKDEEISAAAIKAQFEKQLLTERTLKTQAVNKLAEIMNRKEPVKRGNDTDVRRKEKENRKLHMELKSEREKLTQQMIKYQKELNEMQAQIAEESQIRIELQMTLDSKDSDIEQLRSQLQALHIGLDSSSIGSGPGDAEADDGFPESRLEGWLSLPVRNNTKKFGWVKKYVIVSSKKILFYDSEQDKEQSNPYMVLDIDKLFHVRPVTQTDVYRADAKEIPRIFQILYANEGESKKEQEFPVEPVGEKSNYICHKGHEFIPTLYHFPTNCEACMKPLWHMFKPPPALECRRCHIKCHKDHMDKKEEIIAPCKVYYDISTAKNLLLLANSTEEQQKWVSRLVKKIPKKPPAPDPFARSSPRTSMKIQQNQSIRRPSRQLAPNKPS

[4] = biological target: RAC-alpha serine/threonine-protein kinase (Homo sapiens) (UniProt P31749); experiment: Inhibition of human full length AKT1 using GRPRTSSFAEGKK as substrate at 1 uM incubated for 40 mins by [33P]-gammaATP based Topcount scintillation counting analysis relative to control
[5] = biological target: Serine/threonine-protein kinase MRCK alpha (Homo sapiens) (UniProt Q5VT25); experiment: Inhibition of human recombinant MRCKalpha (1 to 549) using KKRNRTLTV as substrate at 1 uM incubated for 40 mins by radiometric scintillation counting analysis relative to control
[6] = biological target: Rho-associated protein kinase 2 (Homo sapiens) (UniProt O75116); experiment: Inhibition of human recombinant ROCK2 (11 to 552) using KEAKEKRQEQIAKR as substrate at 1 uM incubated for 40 mins by [33P]-gammaATP based Topcount scintillation counting analysis relative to control
[7] = biological target: cAMP-dependent protein kinase catalytic subunit beta (Homo sapiens) (UniProt P22694); experiment: Inhibition of human full length PKAbeta using KEAKEKRQEQIAKR substrate at 1 uM incubated for 40 mins by [33P]-gammaATP based Topcount scintillation counting analysis relative to control
[8] = system: PRISM Panel (900 carcinoma cell lines); experiment: Antiproliferative activity against human PRISM Panel (900 carcinoma cell lines) assessed as cell viability by standard PRISM assay; format: functional, cell-based
HeLa [9] = experiment: Antiproliferative activity against human HeLa cells assessed as cell viability at 10 uM incubated for 48 hrs by CellTiter-Glo cell viability assay; format: functional, cell-based
HeLa [10] = experiment: Induction of multinucleation in human HeLa cells assessed as increase in live nuclei to cell ratio at 2 uM incubated for 48 hrs by Cytokinesis assay; format: functional, cell-based
HeLa [11] = experiment: Effect on cell cycle progression in human HeLa cell line expressing tFUCCI(CA)s fluorescent reporters assessed as accumulation of cells at G1 phase (RFP positive) at 2 uM measured after 48 hrs by Cell cycle progression assay; format: functional, cell-based
HeLa [12] = experiment: Effect on cell cycle progression in human HeLa cell line expressing tFUCCI(CA)s fluorescent reporters assessed as accumulation of cells at G2/M1 phase (RFP/GFP positive) at 2 uM measured after 48 hrs by Cell cycle progression assay; format: functional, cell-based
HeLa [13] = experiment: Antiproliferative activity against human HeLa cells assessed as cell viability at 10 uM incubated for 164 hrs by CellTiter-Glo cell viability assay relative to Staurosporine; format: functional, cell-based
HeLa [14] = experiment: Effect on cell cycle progression in human HeLa cell line expressing tFUCCI(CA)s fluorescent reporters assessed as accumulation of cells at S phase (GFP positive) at 2 uM measured after 48 hrs by Cell cycle progression assay; format: functional, cell-based

## Cc1ccc2c(c1)C(=O)[C@]1(O)CCN(c3ccc(N)cc3)C1=N2
HeLa [1]
  Activity: Active

## CC(C)C[C@@H](N)C(=O)Nc1ccc(-c2ccnc3[nH]ccc23)cc1
[2]
  inhibition: inactive
[3]
  inhibition: inactive
[4]
  inhibition: inactive
[5]
  inhibition: inactive
[6]
  inhibition: inactive
[7]
  inhibition: inactive

## Cc1cc2c(-c3ccc(NC(=O)[C@H](N)[C@@H](O)C(C)C)cc3C)ccnc2[nH]1
[8]
  Activity: inactive

## Cc1cc2c(-c3ccc(NC(=O)[C@H](N)CC(C)(C)C)cc3C)ccnc2[nH]1
HeLa [9]
  Activity: Active
HeLa [10]
  Activity: inactive
HeLa [11]
  Activity: inactive
HeLa [12]
  Activity: inactive
HeLa [13]
  Activity: inactive
HeLa [14]
  Activity: inactive

## Cc1cc2c(-c3ccc(NC(=O)[C@H](N)CC(C)(C)C)cc3C)cncc2[nH]1
HeLa [9]
  Activity: Active
HeLa [10]
  Activity: inactive
HeLa [13]
  Activity: inactive

Source: ChEMBL document CHEMBL5537207, “Discovery and Characterization of Selective, First-in-Class Inhibitors of Citron Kinase” (J Med Chem, 2024)
